{"source": "BindingDB's records for US9090618", "assay_in_all_cases": "Radioligand Binding Assay", "conditions_in_all_cases": "pH 7.4", "key": {"Nociceptin receptor": {"molecular_target": "Nociceptin receptor (Homo sapiens, UniProt P41146)"}, "Mu-type opioid receptor": {"molecular_target": "Mu-type opioid receptor (Homo sapiens, UniProt P35372)"}, "[1]": {"molecular_target": "Kappa-type opioid receptor (Homo sapiens, UniProt P41145)"}, "[2]": {"molecular_target": "Delta-type opioid receptor (Homo sapiens, UniProt P41143)"}}, "data": [{"smiles": "NC(=O)/N=c1\\[nH]c2ccccc2n1C1CCN(C2CCCCCCC2)CC1", "values": [{"measurement": "Ki", "setting": "Nociceptin receptor", "result": 0.0367, "unit": "µM"}]}, {"smiles": "O=C(O)CCN1CCC[C@H]1Cc1nc2ccccc2n1[C@H]1C[C@H]2CCC[C@@H](C1)N2[C@@H]1C[C@@H]2CCCC[C@@H](C2)C1", "values": [{"measurement": "Ki", "setting": "Mu-type opioid receptor", "result": 4.33, "unit": "µM"}]}, {"smiles": "CCOC(=N)/N=c1\\[nH]c2ccccc2n1C1CCN(C2CCCCCCC2)CC1", "values": [{"measurement": "Ki", "setting": "Nociceptin receptor", "result": 0.0175, "unit": "µM"}]}, {"smiles": "O=C(O)CN1CCC[C@@H]1c1nc2ccccc2n1[C@H]1C[C@H]2CCC[C@@H](C1)N2[C@@H]1C[C@@H]2CCCC[C@@H](C2)C1", "values": [{"measurement": "Ki", "setting": "[1]", "result": 0.0652, "unit": "µM"}]}, {"smiles": "O=C(O)CN1CCC[C@H]1Cc1nc2ccccc2n1[C@H]1C[C@H]2CCC[C@@H](C1)N2[C@@H]1C[C@@H]2CCCC[C@@H](C2)C1", "values": [{"measurement": "Ki", "setting": "[1]", "result": 0.254, "unit": "µM"}]}, {"smiles": "COC(=O)/N=c1\\n(CC(N)=O)c2ccccc2n1C1CCN(C2CCCCCCC2)CC1", "values": [{"measurement": "Ki", "setting": "Nociceptin receptor", "result": 0.0371, "unit": "µM"}]}, {"smiles": "O=C(O)CN1CCCC[C@H]1c1nc2ccccc2n1[C@H]1C[C@H]2CCC[C@@H](C1)N2[C@@H]1C[C@@H]2CCCC[C@@H](C2)C1", "values": [{"measurement": "Ki", "setting": "[2]", "result": 6.79, "unit": "µM"}]}, {"smiles": "CS(=O)(=O)NCCN1CC[C@@H](Cc2nc3ccccc3n2[C@H]2C[C@H]3CCC[C@@H](C2)N3[C@@H]2C[C@@H]3CCCC[C@@H](C3)C2)C1", "values": [{"measurement": "Ki", "setting": "[1]", "result": 0.0583, "unit": "µM"}]}, {"smiles": "CONC(=N)/N=c1\\[nH]c2ccccc2n1C1CCN(C2CCCCCCC2)CC1", "values": [{"measurement": "Ki", "setting": "[1]", "result": 0.0262, "unit": "µM"}, {"measurement": "Ki", "setting": "Nociceptin receptor", "result": 0.0224, "unit": "µM"}]}, {"smiles": "NC(=O)CN1CCC[C@H]1c1nc2ccccc2n1[C@H]1C[C@H]2CCC[C@@H](C1)N2[C@@H]1C[C@@H]2CCCC[C@@H](C2)C1", "values": [{"measurement": "Ki", "setting": "Mu-type opioid receptor", "result": 1.67, "unit": "µM"}]}, {"smiles": "O=C(O)CCN1CCC[C@H](c2nc3ccccc3n2[C@H]2C[C@H]3CCC[C@@H](C2)N3[C@@H]2C[C@@H]3CCCC[C@@H](C3)C2)C1", "values": [{"measurement": "Ki", "setting": "[1]", "result": 0.254, "unit": "µM"}]}, {"smiles": "O=C(O)CNc1nc2ccccc2n1C1C[C@H]2CCC[C@@H](C1)N2C1CCCCCCCCC1", "note": "(stereo partly drawn)", "values": [{"measurement": "Ki", "setting": "Mu-type opioid receptor", "result": 1.18, "unit": "µM"}]}]}
